Data: patent US20190241569A1, “3-(ARYL OR HETEROARYL) METHYLENEINDOLIN-2-ONE DERIVATIVES AS INHIBITORS OF CANCER STEM CELL PATHWAY KINASES FOR THE TREATMENT OF CANCER” (Boston Biomedical, Inc., priority 2013, published 2019)

Sequences of proteins named here, by UniProt entry; tags and fusion partners are left off. A change or cut given only in a name is not applied to a line headed by its entry.
UniProt Q9BVS4: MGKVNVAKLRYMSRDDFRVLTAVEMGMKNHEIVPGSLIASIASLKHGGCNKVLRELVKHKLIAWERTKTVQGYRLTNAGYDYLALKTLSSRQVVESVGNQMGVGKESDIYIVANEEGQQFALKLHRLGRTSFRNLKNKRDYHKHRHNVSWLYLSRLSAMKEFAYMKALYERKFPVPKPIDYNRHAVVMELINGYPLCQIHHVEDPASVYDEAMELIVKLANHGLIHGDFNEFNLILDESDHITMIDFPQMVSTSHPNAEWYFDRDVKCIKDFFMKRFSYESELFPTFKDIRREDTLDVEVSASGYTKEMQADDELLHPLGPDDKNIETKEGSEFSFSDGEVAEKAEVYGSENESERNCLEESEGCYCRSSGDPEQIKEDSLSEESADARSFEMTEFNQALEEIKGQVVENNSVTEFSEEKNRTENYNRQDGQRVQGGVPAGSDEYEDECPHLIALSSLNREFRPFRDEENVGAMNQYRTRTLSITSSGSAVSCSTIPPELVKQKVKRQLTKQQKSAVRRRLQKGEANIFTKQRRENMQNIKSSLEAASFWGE

Target: T1, human RIOK2 protein (Homo sapiens, UniProt Q9BVS4)
T1 construct: glutathione S-transferase is fused to N-terminal of a full-length human RIOK2 protein; GST (glutathione S-transferase) (N); purchased CarnaBio, Inc; host or cells: baculovirus-Sf21 cell expression system
Test: RIOK2 autophosphorylation ELISA (Test Example 4)
Assay type: biochemical
Conditions: 30° C. for 1 hour
Procedure: A protein in which glutathione S-transferase is fused to N-terminal of a full-length human RIOK2 protein was used as a recombinant human RIOK2 protein. The protein was prepared using a baculovirus-Sf21 cell expression system from CarnaBio, Inc. A kinase reaction solution was prepared by mixing 25 μg/mL of the recombinant human RIOK2 protein and 100 μM of ATP in 20 μl of kinase reaction buffer (50 mM Tris-HCl, 10 mM MgCl2, 10 mM MnCl2, 1 mM DTT, 0.01% Brij, 1× PhosSTOP (manufactured by Roche Applied Science)), and was incubated at a temperature of 30° C. for 1 hour. After adding 30 μl of 40 mM EDTA solution to this kinase reaction solution, the kinase reaction solution was transferred to a MaxiSorp 96 well plate (manufactured by Nunc). Thereafter, phosphorylated human RIOK2 protein was allowed to adsorb onto the wells by leaving the plate in a refrigerator overnight.
The following day, the supernatant was removed, and the wells were washed three times with ELISA buffer (20 mM Tris-HCl, 150 mM NaCl, 0.2% Tween-20, 0.1% BSA). Thereafter, 100 μl of Blocking-One P (product name; manufactured by Nacalai Tesque, Inc.) was applied to the wells, and a blocking treatment was performed for 1 hour at room temperature. […] An absorptiometric level of 450 nm was measured in each well using ARVO SX (manufactured by Wallac).

**Q.** CN[C@@H]1C[C@H]2O[C@@](C)([C@@H]1OC)n1c3ccccc3c3c4c(c5c6ccccc6n2c5c31)C(=O)NC4 [staurosporine, reference compound] was tested. Which RIOK2 kinase activity did it give?
**A.** suppressed depending on the concentration of staurosporine
